Target: T1, GCase (Homo sapiens, UniProt P04062)
T1 construct: endogenous in cells; host or cells: HeLa cells
T1 sequence (P04062 40-536): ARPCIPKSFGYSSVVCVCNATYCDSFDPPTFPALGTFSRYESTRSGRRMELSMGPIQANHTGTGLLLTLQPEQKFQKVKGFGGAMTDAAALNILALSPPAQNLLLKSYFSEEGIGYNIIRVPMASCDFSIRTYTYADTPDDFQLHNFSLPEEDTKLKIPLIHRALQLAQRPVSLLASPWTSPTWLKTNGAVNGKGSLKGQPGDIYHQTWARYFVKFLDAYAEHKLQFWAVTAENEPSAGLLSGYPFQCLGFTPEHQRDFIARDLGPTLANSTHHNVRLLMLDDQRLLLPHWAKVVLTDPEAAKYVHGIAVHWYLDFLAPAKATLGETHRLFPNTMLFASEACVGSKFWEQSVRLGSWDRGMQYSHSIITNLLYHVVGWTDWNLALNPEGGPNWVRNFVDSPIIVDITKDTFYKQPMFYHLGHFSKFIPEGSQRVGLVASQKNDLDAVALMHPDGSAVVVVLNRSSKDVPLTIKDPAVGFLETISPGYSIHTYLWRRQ
Assay: activation of GCase in a live cell PFB assay in HELA cells
Assay type: cell-based

O=C(c1ccc2cc[nH]c2c1)N1C2CCC1CC(COc1ccccc1)C2 (stereo not shown) [Compound 340, (1H-indol-6-yl)(3-(phenoxymethyl)-8-azabicyclo[3.2.1]octan-8-yl)methanone]
EC50: 10 to 50 µM

— patent US20240262832A1, “SMALL MOLECULE MODULATORS OF GLUCOCEREBROSIDASE ACTIVITY AND USES THEREOF” (Vanqua Bio, Inc., priority 2021, published 2024)
